From patent US11180528B2 (priority 2018, dated 2021)

Assays:
[1] = test system: G. mellonella larvae; assay: Peptide toxicity in Galleria mellonella larvae; conditions: 10 μg peptide per larva, 48 h
[2] = test system: A549 human lung epithelial cells; assay: MTT cell proliferation (cytotoxicity) assay; conditions: 100 μg/ml peptide, 24 h

| Structure (SMILES) | death of larvae (toxicity) [1] | suppression of cell proliferation [2] |
| --- | --- | --- |
| CC(C)C[C@H](NC(=O)[C@H](CCCCN)NC(=O)[C@H](CCC(N)=O)NC(=O)[C@H](CCCCN)NC(=O)[C@H](Cc1ccccc1)NC(=O)[C@H](CCCCN)NC(=O)[C@H](CCCCN)NC(=O)[C@H](Cc1ccccc1)NC(=O)[C@H](Cc1c[nH]cn1)NC(=O)[C@H](CCC(N)=O)NC(=O)[C@H](CO)NC(=O)[C@H](Cc1ccccc1)NC(=O)[C@H](Cc1c[nH]c2ccccc12)NC(=O)[C@H](CC(N)=O)NC(=O)[C@H](CCCNC(=N)N)NC(=O)[C@H](Cc1ccccc1)NC(=O)[C@@H](N)CCCCN)C(=O)N[C@@H](CCCCN)C(=O)N[C@@H](CC(N)=O)C(=O)N[C@H](C(=O)N[C@@H](Cc1ccccc1)C(=O)N[C@@H](C)C(=O)O)[C@@H](C)O [GATR-3] | not found to have significant death | some statistically significant suppression of cell proliferation |
| CC(C)C[C@H](NC(=O)[C@H](CCCNC(=N)N)NC(=O)[C@H](CCC(N)=O)NC(=O)[C@H](CCCNC(=N)N)NC(=O)[C@H](Cc1c[nH]c2ccccc12)NC(=O)[C@H](CCCNC(=N)N)NC(=O)[C@H](CCCNC(=N)N)NC(=O)[C@H](Cc1c[nH]c2ccccc12)NC(=O)[C@H](Cc1c[nH]cn1)NC(=O)[C@H](CCC(N)=O)NC(=O)[C@H](CO)NC(=O)[C@H](Cc1ccccc1)NC(=O)[C@H](Cc1c[nH]c2ccccc12)NC(=O)[C@H](CC(N)=O)NC(=O)[C@H](CCCNC(=N)N)NC(=O)[C@H](Cc1ccccc1)NC(=O)[C@@H](N)CCCCN)C(=O)N[C@@H](CCCNC(=N)N)C(=O)N[C@@H](CC(N)=O)C(=O)N[C@H](C(=O)N[C@@H](Cc1c[nH]c2ccccc12)C(=O)N[C@@H](C)C(=O)O)[C@@H](C)O [GATR-6] | not found to have significant death | some statistically significant suppression of cell proliferation |
